EC50 data for two molecules are collected here from ChEMBL document CHEMBL1149666, “Novel 1-(azacyclyl)-3-arylsulfonyl-1H-pyrrolo[2,3-b]pyridines as 5-HT6 agonists and antagonists” (Bioorg Med Chem, 2007).

By UniProt entry, the sequences of proteins in these tests, tags left out.
UniProt P50406, whole entry: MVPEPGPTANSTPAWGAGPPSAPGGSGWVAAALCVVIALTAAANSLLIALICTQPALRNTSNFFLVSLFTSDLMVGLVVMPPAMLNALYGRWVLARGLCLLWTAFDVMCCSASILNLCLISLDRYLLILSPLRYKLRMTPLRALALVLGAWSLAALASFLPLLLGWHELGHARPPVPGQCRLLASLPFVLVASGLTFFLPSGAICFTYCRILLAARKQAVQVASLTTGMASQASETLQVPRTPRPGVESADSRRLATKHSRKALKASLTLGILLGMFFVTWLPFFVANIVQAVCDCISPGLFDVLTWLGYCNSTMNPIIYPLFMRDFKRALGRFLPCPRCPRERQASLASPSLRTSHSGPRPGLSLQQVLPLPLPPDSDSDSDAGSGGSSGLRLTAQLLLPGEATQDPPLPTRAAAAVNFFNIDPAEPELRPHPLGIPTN

Structures are written as SMILES.

This assay has as its target 5-hydroxytryptamine receptor 6 (Homo sapiens, UniProt P50406). The assay is described as follows: Agonist activity at human 5HT6 expressed in HeLa cells assessed as intracellular cAMP level by radioimmunoassay. It is filed as functional, cell-based.

Turning to `CCN1CCCC(n2cc(S(=O)(=O)c3cccc(F)c3)c3cccnc32)C1` (configuration not stated), the concentration for a half-maximal effect (EC50) came out at 60 nM. The figure for `CN1CCC(n2cc(S(=O)(=O)c3cccc(F)c3)c3cccnc32)C1` (configuration not stated) is 231 nM.

The EC50 is the concentration at which the effect is half-maximal.
